The numbers were not newly measured in patent US8329421B2, “Methods of predicting response of a neoplasm to an EGFR inhibitor and detecting interactions between EGFR and an EGFR regulatory protein” (Ventana Medical Systems, Inc., priority 2007, dated 2012), which cites them from elsewhere.

The data set concerns advanced colorectal cancer. The settings on record: patients with advanced colorectal cancer, cited from earlier work.

“And” between values parts separate entries of the source, which are not always exact repeats. Equal values may be shown once. Read-outs that look alike come from different tables or passages of the source.

As for cetuximab, the response rate by setting is: (cetuximab alone) 10.5% and 10.8%; (combined therapy with irinotecan) 22.5% and 22.9%.
